## Permeability data for macrocyclic peptides

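Lipid, pH, incubation time, direction and concentration are not recorded in the data file. Other peptides of the study may be missing here. Peptides that the database sets to -10, its floor, are left out.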

PAMPA measures passive passage through an artificial lipid membrane. Permeability is given as log10 of P in cm/s; higher (less negative) is more permeable.

SMILES	PAMPA (log10 cm/s)
CC(C)C[C@@H]1NC(=O)[C@@H](CC(C)C)N(C)C(=O)[C@@H](C)N(C)C(=O)[C@@H]2CCCN2C(=O)[C@H](Cc2ccccc2)NC(=O)[C@@H](CC(C)C)N(C)C(=O)[C@@H]2CCCN2C1=O	-5.27
CC(C)C[C@@H]1NC(=O)[C@@H](C)NC(=O)[C@H](Cc2ccccc2)NC(=O)[C@@H](CC(C)C)NC(=O)[C@@H]2CCCN2C(=O)CN(Cc2ccccc2)C1=O	-6.63
CC(C)C[C@@H]1C(=O)N[C@H](CC(C)C)C(=O)N2CCC[C@H]2C(=O)N(C)[C@@H](CC(C)C)C(=O)N[C@@H](Cc2ccccc2)C(=O)N2CCC[C@H]2C(=O)N[C@@H](C)C(=O)N1C	-5.88
CC(C)C[C@@H]1C(=O)N(Cc2ccccc2)CC(=O)N2CCC[C@@H]2C(=O)N(Cc2ccccc2)CC(=O)N[C@@H](Cc2ccccc2)C(=O)N(C)[C@H](C)C(=O)N1C	-5.31
CC(C)C[C@@H]1NC(=O)[C@@H]2CCCN2C(=O)C[C@H](Cc2ccccc2)NC(=O)[C@@H](CC(C)C)NC(=O)[C@H](C)NC(=O)[C@H]2CCCN2C(=O)[C@H](Cc2ccccc2)NC1=O	-6.89
CC(C)C[C@@H]1NC(=O)[C@@H](C)N(C)C(=O)[C@H]2CCCN2C(=O)[C@H](Cc2ccccc2)NC(=O)[C@@H](CC(C)C)N(C)C(=O)[C@H]2CCCN2C(=O)[C@H](CC(C)C)NC1=O	-5.94
CC(C)C[C@@H]1C(=O)N(C)[C@@H](CC(C)C)C(=O)N2CCC[C@H]2C(=O)N(C)[C@@H](CC(C)C)C(=O)N[C@@H](Cc2ccccc2)C(=O)N2CCC[C@H]2C(=O)N(C)[C@H](C)C(=O)N1C	-5.36
CC(C)C[C@@H]1NC(=O)[C@@H](C)N(C)C(=O)[C@@H]2CCCN2C(=O)[C@H](Cc2ccccc2)NC(=O)[C@@H](CC(C)C)NC(=O)[C@@H]2CCCN2C(=O)[C@@H](CC(C)C)N(C)C1=O	-6.07
CC(C)C[C@@H]1C(=O)N[C@@H](Cc2ccccc2)CC(=O)N2CCC[C@@H]2C(=O)N(C)[C@@H](CC(C)C)C(=O)N[C@@H](Cc2ccccc2)C(=O)N2CCC[C@@H]2C(=O)N[C@@H](C)C(=O)N1C	-5.79
CC(C)C[C@@H]1NC(=O)[C@@H]2CCCN2C(=O)C[C@H](Cc2ccccc2)NC(=O)[C@@H](CC(C)C)N(C)C(=O)[C@H](C)N(C)C(=O)[C@H](Cc2ccccc2)NC1=O	-6.18
CCCN1CC(=O)N[C@H](CC(C)C)C(=O)N[C@H](CC(C)C)C(=O)N2CCC[C@H]2C(=O)N(Cc2ccccc2)CC(=O)N[C@@H](Cc2ccccc2)C1=O	-5.88
CC(C)C[C@@H]1NC(=O)[C@@H](C)NC(=O)[C@@H]2CCCN2C(=O)[C@H](Cc2ccccc2)NC(=O)[C@@H](CC(C)C)N(C)C(=O)[C@@H]2CCCN2C(=O)[C@@H](CC(C)C)N(C)C1=O	-5.68
CC(C)C[C@@H]1C(=O)N[C@H](CC(C)C)C(=O)N2CCC[C@H]2C(=O)N[C@H](CC(C)C)C(=O)N[C@@H](Cc2ccccc2)C(=O)N2CCC[C@@H]2C(=O)N[C@@H](Cc2ccccc2)CC(=O)N1C	-5.50
CC(C)C[C@H]1NC(=O)[C@H]2CCCN2C(=O)[C@H](CC(C)C)N(C)C(=O)[C@@H](CC(C)C)NC(=O)[C@H](C)N(C)C(=O)[C@H](Cc2ccccc2)NC1=O	-5.05
CC(C)C[C@@H]1NC(=O)[C@@H]2CCCN2C(=O)C[C@H](Cc2ccccc2)NC(=O)[C@@H](CC(C)C)NC(=O)[C@H](C)NC(=O)[C@@H]2CCCN2C(=O)[C@H](Cc2ccccc2)NC1=O	-6.22
CC(C)C[C@@H]1NC(=O)[C@@H]2CCCN2C(=O)[C@H](CC(C)C)NC(=O)CN(Cc2ccccc2)C(=O)[C@@H](C)NC(=O)[C@H](Cc2ccccc2)NC1=O	-6.08
CC(C)C[C@H]1C(=O)N(Cc2ccccc2)CC(=O)N2CCC[C@H]2C(=O)N(Cc2ccccc2)CC(=O)N[C@@H](Cc2ccccc2)C(=O)N2CCC[C@H]2C(=O)N(C)[C@H](C)C(=O)N1C	-5.91
CC(C)C[C@@H]1C(=O)N[C@@H](Cc2ccccc2)C(=O)N[C@@H](C)C(=O)N(C)[C@@H](CC(C)C)C(=O)N(Cc2ccccc2)CC(=O)N2CCC[C@@H]2C(=O)N1C	-6.22

A selection of 2 entries from above:

| SMILES | PAMPA (log10 cm/s) |
|---|---|
| CC(C)C[C@@H]1C(=O)N[C@H](CC(C)C)C(=O)N2CCC[C@H]2C(=O)N(C)[C@@H](CC(C)C)C(=O)N[C@@H](Cc2ccccc2)C(=O)N2CCC[C@H]2C(=O)N[C@@H](C)C(=O)N1C | -5.88 |
| CC(C)C[C@@H]1C(=O)N[C@H](CC(C)C)C(=O)N2CCC[C@H]2C(=O)N[C@H](CC(C)C)C(=O)N[C@@H](Cc2ccccc2)C(=O)N2CCC[C@@H]2C(=O)N[C@@H](Cc2ccccc2)CC(=O)N1C | -5.50 |

Values of Townsend et al. 2020, doi:10.26434/chemrxiv.13335941.v1, as listed in CycPeptMPDB.